Literature values as cited in US20030170176A1, “Individualization of therapy with antipsychotics” (McGill University, priority 2001, published 2003).

Details: CYP2D6 extensive metabolizers; cited from earlier work

## Cc1nc2n(c(=O)c1CCN1CCC(c3noc4cc(F)ccc34)CC1)CCCC2 [risperidone]
  individuals suffering from side effects: 35%
